Results from PMC3041239 (Journal of Medicinal Chemistry, 2011).

System: rats
Assay: Tail-flick test in the rat after sc administration

Row | Compound | peak of action, time postinjection | antinociceptive potency relative to derivative 18 (more potent than 18)
1 | Cl.Cl.O=C(O)CN[C@@H]1CC[C@@]2(OCCCc3ccccc3)[C@H]3Cc4ccc(O)c5c4[C@@]2(CCN3CC2CC2)[C@H]1O5 [Compound 18, [[17-Cyclopropylmethyl-4,5α-epoxy-3-hydroxy-14β-[(3-phenylpropyl)oxy]morphinan-6β-yl]amino]acetic Acid Dihydrochloride] | two hours | 
2 | CC(C)(C)OC(=O)CN[C@@H]1CC[C@@]2(OCCCc3ccccc3)[C@H]3Cc4ccc(O)c5c4[C@@]2(CCN3CC2CC2)[C@H]1O5 [Compound 16] |  | about 6 fold
